## Apparent affinities of Ab-14 variants for a coronavirus HR2 peptide

Values reported by Engelhart et al. 2022, doi:10.1038/s41597-022-01779-4 (FLAb copy).

Target peptide (SARS-CoV-2 spike, HR2 region): PDVDLGDISGINAS

Parent scFv Ab-14: VH joined to VL by a (GGGGS)3 linker. Changes lie in the heavy chain CDRs alone.
VH: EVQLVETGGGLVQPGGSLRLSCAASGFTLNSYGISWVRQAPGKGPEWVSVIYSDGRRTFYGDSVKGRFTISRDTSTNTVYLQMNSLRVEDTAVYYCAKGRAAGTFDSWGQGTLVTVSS
VL: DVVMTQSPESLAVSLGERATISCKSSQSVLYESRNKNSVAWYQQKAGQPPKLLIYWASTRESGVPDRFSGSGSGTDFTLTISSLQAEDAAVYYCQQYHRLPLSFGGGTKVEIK

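Phage display of a naive human antibody library on the peptide gave the parent. In library AAYL49, one, two or three CDR residues were substituted; doubles and triples were drawn at random. The assay is AlphaSeq: two haploid yeast populations carry antibody and antigen on their surface. Mating (16 h, 30 °C) was followed by selection of diploids and sequencing of their barcodes. Each replicate has its own calibration line, from reference interactions of the BCL2 family. Mating was done three times.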

Changes read parent residue, position, new residue, counted from the first residue of the VH shown.
Scale: log10 of Kd in nM, estimated from mating counts; low values are strong binders.
"nd" means that the variant was in the library but no mating with the target was seen in that replicate; the authors take this as a sign of poor binding, and no number exists.
For reference, the parent read 0.65 as the reference entry and 4.11 (one replicate of three) as a member of this library.
As a blank, each scFv also met three strains without target: over library AAYL49, 15% of these pairings were detected, typically at 4.06 and seldom below 2.83. The control count says in how many pairings with the empty strains this scFv gave a signal.

S35F+G61V+G99R: nd, nd, nd (controls 0 of 9).
G26T+K65Y: 5.94, 2.81, 2.91 (controls 1 of 9).
F27A+S31W+G103P: nd, nd, nd (controls 2 of 9).
Y52D+R57G+Y60R: nd, 4.93, 5.63 (controls 1 of 9).
S31W+R57D+F59S: nd, nd, nd (controls 0 of 9).
F27P+S31Q+Y52C: nd, nd, nd (controls 4 of 9).
T58M+Y60D+A101M: 3.70, nd, 5.03 (controls 4 of 9).
I51Y+T58Y+K65F: nd, nd, nd (controls 0 of 9).
S35A+S53C+D54F: nd, nd, nd (controls 2 of 9).
L29M+R57E+D106M: nd, 3.95, nd (controls 3 of 9).
S35M+G55Q+D62L: nd, nd, nd (controls 0 of 9).
F59K+R100V+S107D: 3.29, 2.11, 3.05 (controls 0 of 9).
T28R+S35Y+F105Q: nd, nd, nd (controls 0 of 9).
G26Y+N30I+S31E: 2.54, 2.42, 3.05 (controls 5 of 9).
S35C+F105I: nd, nd, nd (controls 0 of 9).
N30A+S63E+A101T: 0.69, 0.61, 0.69 (controls 2 of 9).
R56N+D62H+G103E: 4.66, 4.61, 4.40 (controls 4 of 9).
Y52C+K65E+F105V: nd, 3.57, nd (controls 2 of 9).
G26S+S53E+D54L: nd, nd, nd (controls 1 of 9).
R100G+S107I: 2.52, 1.78, 2.63 (controls 1 of 9).
N30Y+Y52A+R57H: nd, nd, nd (controls 1 of 9).
G26I+S35V+R100Q: nd, 3.53, nd (controls 1 of 9).
R56D+G61Y+T104R: nd, 1.64, nd (controls 1 of 9).
G26I+N30T+R57T: nd, nd, 5.86 (controls 2 of 9).
T28K+Y52W+G55Q: 3.48, nd, nd (controls 0 of 9).
F27E+S31W+Y32G: 5.81, 4.03, nd (controls 4 of 9).
F27E+D54W+G103C: nd, nd, nd (controls 1 of 9).
G26E+I51R+S53L: nd, nd, nd (controls 2 of 9).
G61K+D62C+G103Q: nd, nd, nd (controls 1 of 9).
V50M+S53G+F105Y: 5.58, nd, nd (controls 4 of 9).
L29F+G33S+S63V: nd, nd, nd (controls 0 of 9).
L29W+R56P+T58L: 4.33, nd, nd (controls 2 of 9).
L29M+I51R+A101K: nd, nd, nd (controls 1 of 9).
L29N+Y32E+Y60F: nd, 3.51, nd (controls 3 of 9).
S31F+A102H+F105H: nd, 4.04, nd (controls 1 of 9).
G99E: nd, nd, 3.23 (controls 0 of 9).
V50A+G61E+S107C: nd, nd, nd (controls 1 of 9).
G26D+S53N+S63A: nd, nd, 5.69 (controls 0 of 9).
T28H+F59Y+G99H: nd, nd, nd (controls 0 of 9).
Y60E+K65P+A101E: nd, nd, nd (controls 4 of 9).
K65Q+R100C: 3.43, 3.96, 6.49 (controls 5 of 9).
I34L+G61S+G103R: 4.83, 4.48, nd (controls 7 of 9).
Y60C+K65V+T104R: nd, nd, nd (controls 1 of 9).
G33A+G55L+G61I: nd, 5.67, 3.94 (controls 6 of 9).
N30E+Y52N+S53I: nd, 4.80, 3.81 (controls 5 of 9).
S53D+V64H: nd, nd, nd (controls 4 of 9).
L29W+R57A+G61L: nd, nd, nd (controls 0 of 9).
T28F+A102D+G103E: nd, 2.48, nd (controls 1 of 9).
G26K+L29W: nd, nd, nd (controls 1 of 9).
F27H+S31L+I51C: nd, nd, nd (controls 2 of 9).

Repeated from above, the 3 best binders with a signal in all replicates:

{"changes": "N30A+S63E+A101T", "log10 Kd (nM) by replicate": "0.69, 0.61, 0.69", "empty controls": "2/9"}
{"changes": "R100G+S107I", "log10 Kd (nM) by replicate": "2.52, 1.78, 2.63", "empty controls": "1/9"}
{"changes": "G26Y+N30I+S31E", "log10 Kd (nM) by replicate": "2.54, 2.42, 3.05", "empty controls": "5/9"}